In general, EC50 refers to the concentration at which the effect is half-maximal.

Amino acid sequences for entries named in this document (tags omitted). Residues count along the entry.
UniProt P23945, 18-695 limits assumed: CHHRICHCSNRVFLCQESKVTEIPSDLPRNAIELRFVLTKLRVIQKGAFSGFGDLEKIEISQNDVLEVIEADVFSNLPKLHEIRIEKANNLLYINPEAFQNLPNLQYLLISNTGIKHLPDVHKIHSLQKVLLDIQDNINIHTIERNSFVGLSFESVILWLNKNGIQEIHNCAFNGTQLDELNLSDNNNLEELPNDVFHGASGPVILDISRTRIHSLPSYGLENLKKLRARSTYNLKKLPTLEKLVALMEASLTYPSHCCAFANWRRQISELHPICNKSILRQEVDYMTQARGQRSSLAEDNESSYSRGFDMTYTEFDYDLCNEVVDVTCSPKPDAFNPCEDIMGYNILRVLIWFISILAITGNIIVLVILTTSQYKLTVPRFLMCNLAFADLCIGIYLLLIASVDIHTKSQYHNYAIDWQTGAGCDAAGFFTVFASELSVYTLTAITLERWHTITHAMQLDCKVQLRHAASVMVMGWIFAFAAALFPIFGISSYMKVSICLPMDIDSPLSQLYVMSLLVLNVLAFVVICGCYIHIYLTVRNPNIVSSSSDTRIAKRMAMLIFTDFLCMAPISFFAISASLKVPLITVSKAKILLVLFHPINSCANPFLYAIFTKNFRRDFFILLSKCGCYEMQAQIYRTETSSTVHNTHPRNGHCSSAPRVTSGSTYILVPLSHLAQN

This passage reports EC50 results from patent US6583179B2, “Substituted aminoalkylamide derivatives as antagonists of follicle stimulating hormone” (Ortho-McNeil Pharmaceutical, Inc., priority 1999, dated 2003).

For one experiment, the system named is Rat Granulosa Cell. Nature of the experiment: Rat granulosa cell FSH-stimulated cAMP production. Particulars: read-out: Rat Granulosa Cell EC50 cAMP; inhibition of cAMP produced by EC70 dose of FSH (1.4 nM); maximum concentration 50 μM. Here is the method:
Insulin, diethylstilbesterol, androstenedione, forskolin and DMSO were purchased from Sigma (St. Louis, Mo.). Fungizone, penicillin/streptomycin, charcoal-treated heat inactivated fetal bovine serum (CT-HI-FBS) and Dulbecco's Modified Eagle Medium:Hams F12 medium containing 15 mM Hepes and L-glutamine (DMEM:F12), were purchased from GIBCO BRL (Grand Island, N.Y.).
Ovine FSH (NIADDK-oFSH-17; FSH potency=20 NIH-FSH-S1 U/mg; LH contamination=0.04 times NIH-LH-S1) was received from Ogden Bioservices Corporation, Rockville, Md. Human FSH (Fertinex), was purchased from Serono Pharmaceutical (Framingham, Mass.). Human chorionic gonadotropin (hCG) was purchased from Sigma (St Louis, Mo.).
Immature intact female rats (Wistar-derived strain; 21-23 days old) were implanted with a single pellet (Innovative Research of America, Sarasota, Fla.) containing 2.5 mg diethylstilbesterol (DES) for 3 days. On the third day, the animals were sacrificed, the ovaries were removed, and the granulosa cells were isolated essentially as described in Haynes-Johnson et al., Biol. Reprod., 61 (1), 147-153, (1999). Granulosa cells were plated at a density of 300,000 cells per ml with 0.2 ml added to each well of 96 well culture dishes (Corning, N.Y.). Cultures were incubated at 37° C. in a humidified incubator (95% air, 5% CO2) overnight (18 hours).
Androstenedione (100,000X) was prepared by dissolving the steroid in 100% ethanol, and was subsequently diluted to a final concentration of 10^−7M containing 0.1% ethanol in assay media. The assay media was serum-free, DES-free, insulin-free media, prepared by adding 5 mL pen-strep,1.5 mL fungizone and 5 μL androstenedione to 493.5 mL DMEM F-12 media.
Test compounds were solubilized in 30% dimethyl sulfoxide (DMSO) at a concentration of 10 mM before diluting to appropriate concentrations in assay medium. The final DMSO concentration in the treated cells and in the control cells was 0.75%.
Test plates containing the granulosa cells were preincubated for 18 hours at 37° C. with 95% air, 5% CO2, 100% humidity. The spent media was removed and 50 μl assay media (DMEM:F12) containing 2 mM IBMX (3-isobutyl-1-methyl-xanthine) was added to the cells. Compounds (25 μl) in the appropriate concentration were added followed 5 minutes later by an EC70 dose of FSH (25 μl; 50 ng/ml; 1.4 nM). After 30 minutes @ 22.5° C. (room temperature) the reaction was terminated by addition of 25 μL 0.5 N hydrochloric acid to each well. The amount of cAMP produced was measured by radioimmunoassay in a FlashPlate (DuPont, Boston, Mass.). To each flash plate 60 μL flash plate buffer was added followed by 40 μL acidified cell sample or cAMP standard, followed with the addition of 100 μl ^125l-cAMP trace. The FlashPlates were sealed, incubated overnight @ room temperature, and counted in a Packard TopCount (Packard Instrument Co., Meriden, Conn.). The cAMP radioimmunoassay results were calculated using DPM conversion and log-logit transformation of % binding (Excel program).

Another experiment deals with human FSH receptor (Homo sapiens, UniProt P23945). The experiment is described as follows: hFSHR CHO cAMP assay (rhFSHR-cLUC cells, FSH-stimulated cAMP, radioimmunoassay). Particulars: read-out: EC50 hFSHR CHO cAMP; inhibition of cAMP produced by EC70 dose of FSH (4.85 nM); maximum concentration 50 μM. In general terms: Cyclic AMP is a second messenger, typically raised through Gs and lowered through Gi signalling.

With `Cc1ccccc1-c1ccc(S(=O)(=O)N(CC(=O)NCC2CCC(CN)CC2)C[C@@H](C)c2ccccc2)cc1` (stereo partly drawn), the EC50 in the experiment on Rat Granulosa Cell is 80 nM; on human FSH receptor, 130 nM. Take `COc1ccc(OC)c(S(=O)(=O)N(CC(=O)NCC2CCC(CN)CC2)Cc2ccccc2OC)c1` (stereo not drawn): the concentration giving a half-maximal response (EC50) worked out at 29400 nM with Rat Granulosa Cell and 40000 nM on human FSH receptor. For the compound `COc1ccccc1CCN(CC(=O)NCc1ccc(CN)cc1)S(=O)(=O)c1ccc(-c2ccccc2C)cc1`, the EC50 amounted to 280 nM in the experiment with Rat Granulosa Cell and 680 nM on human FSH receptor. The matching figures for `COc1ccccc1CCN(CC(=O)NCC1CCC(CN)CC1)S(=O)(=O)c1ccc(-c2ccc(F)cc2)cc1` (stereo not drawn): 280 nM and 670 nM. The matching figures for `COc1ccccc1CN(CC(=O)NCC1CCC(CN)CC1)S(=O)(=O)c1ccc(C)cc1` (stereo not drawn): 12500 nM and no less than 50000 nM.

With `COc1ccccc1CCN(CC(=O)N[C@H]1CC[C@H](N)CC1)S(=O)(=O)c1ccc(-c2ccc(C#N)cc2)cc1`, the EC50 worked out at 4890 nM with Rat Granulosa Cell and 10800 nM on human FSH receptor. Take `COc1ccccc1CN(CC(=O)NCC1CCC(CN)CC1)S(=O)(=O)c1ccc(I)cc1` (stereo not drawn): the half-maximal effective concentration (EC50) was 1460 nM with Rat Granulosa Cell and 38500 nM on human FSH receptor.

With `COc1ccccc1CCN(CC(=O)NCc1ccc(CN)cc1)S(=O)(=O)c1ccc(-c2ccccc2Cl)cc1`, the half-maximal effective concentration (EC50) in the experiment with Rat Granulosa Cell was found to be 400 nM; on human FSH receptor it was 630 nM. In the same order, the values of `COc1ccccc1CCN(CC(=O)N[C@H]1CC[C@H](N)CC1)S(=O)(=O)c1ccc(-c2ccco2)cc1` are 3160 nM and 4760 nM. In the same order, the values of `COc1ccccc1CCN(CC(=O)NCc1ccc(CN)cc1)S(=O)(=O)c1ccc(-c2ccccc2OC)cc1` are 480 nM and 560 nM. In the same order, the values of `COc1ccccc1CCN(CC(=O)N[C@H]1CC[C@H](N)CC1)S(=O)(=O)c1ccc(-c2cccs2)cc1` are 32900 nM and 9540 nM.

On to `COc1ccccc1CCN(CC(=O)NCC1CCC(CN)CC1)S(=O)(=O)c1ccc(-c2cccc(Cl)c2)cc1` (stereo not drawn), for which the results for the EC50 in the experiment on Rat Granulosa Cell and on human FSH receptor were 490 nM and 660 nM, respectively.

For the compound `COc1ccccc1CN(CC(=O)NCC1CCC(CN)CC1)S(=O)(=O)c1cc(Cl)sc1Cl` (stereo not drawn), the EC50 was determined as 1080 nM in the experiment with Rat Granulosa Cell and 3620 nM on human FSH receptor. In the same order, the values of `COc1ccccc1CCN(CC(=O)NCc1ccc(CN)cc1)S(=O)(=O)c1ccc(Cl)cc1Cl` are 1530 nM and 760 nM. The matching figures for `COc1cccc(CN(CC(=O)NCC2CCC(CN)CC2)S(=O)(=O)c2ccc(-c3ccc(Cl)cc3Cl)cc2)c1` (stereo not drawn): 850 nM and 5030 nM.

For `COc1cccc(CN(CC(=O)NCC2CCC(CN)CC2)S(=O)(=O)c2ccc(-c3cccc(C(F)(F)F)c3)cc2)c1` (stereo not drawn), the 50% effective concentration (EC50) in the experiment on Rat Granulosa Cell stood at 640 nM; on human FSH receptor, 6310 nM. The matching figures for `COc1ccccc1CCN(CC(=O)NCc1ccc(CN)cc1)S(=O)(=O)c1cccc2ccccc12`: 1290 nM and 2110 nM. As for `COc1ccccc1CCN(CC(=O)NCc1ccc(CN)cc1)S(=O)(=O)c1ccc(-c2cccc3ccccc23)s1`, the EC50 amounted to 470 nM with Rat Granulosa Cell and 1090 nM at human FSH receptor. `COc1ccccc1CCN(CC(=O)NCc1ccc(CN)cc1)S(=O)(=O)c1cccc(-c2ccccc2F)c1`: the EC50 came to 1650 nM in the experiment on Rat Granulosa Cell and 1640 nM at human FSH receptor. On to `COc1ccccc1CN(CC(=O)NCC1CCC(CN)CC1)S(=O)(=O)c1ccc(C(C)(C)C)cc1` (stereo not drawn), for which the values for the EC50 in the experiment on Rat Granulosa Cell and on human FSH receptor were 1070 nM and 4820 nM, respectively. In the case of `COc1ccccc1CCN(CC(=O)NCc1ccc(CN)cc1)S(=O)(=O)c1cccc(-c2ccc3c(c2)OCO3)c1`, at human FSH receptor, the concentration for a half-maximal effect (EC50) was determined as 2440 nM. Same read-out and setting: next, `COc1ccccc1CCN(CC(=O)N1CCNCC1)S(=O)(=O)c1ccc(-c2cccc3ccccc23)cc1`: 8340 nM. Regarding `COc1ccc(-c2ccc(S(=O)(=O)N(CC(=O)NCc3ccc(CN)cc3)C[C@@H](C)c3ccccc3)cc2)cc1`, the EC50 on human FSH receptor is 160 nM. For `Cc1cccc(-c2ccc(S(=O)(=O)N(CC(=O)NCc3ccc(CN)cc3)C[C@H](C)c3ccccc3)cc2)c1`, the EC50 on human FSH receptor is 730 nM. Still for that read-out and setting: next, `NCc1ccc(CNC(=O)CN(CCc2ccccc2[N+](=O)[O-])S(=O)(=O)c2ccc(-c3ccccc3Cl)cc2)cc1`: 150 nM. Still for that read-out and setting: next, `COc1cccc(S(=O)(=O)N(CC(=O)NCc2ccc(CN)cc2)C[C@@H](C)c2ccccc2)c1`: 870 nM; `Cc1ccc(-c2ccc(S(=O)(=O)N(CC(=O)NCc3ccc(CN)cc3)C[C@H](C)c3ccccc3)cc2)cc1Cl`: 210 nM; `COc1ccccc1CN(CC(=O)N1CCNCC1)S(=O)(=O)c1ccc(-c2ccsc2)cc1`: 47800 nM. With `COc1ccccc1CCN(CC(=O)NCc1ccc(CN)cc1)S(=O)(=O)c1ccccc1-c1ccc(F)cc1`, on human FSH receptor, the concentration giving a half-maximal response (EC50) was 5860 nM. Same read-out and setting: next, `COc1ccccc1CCN(CC(=O)NCc1ccc(CN)cc1)S(=O)(=O)c1ccccc1-c1cccs1`: 1200 nM; `Cc1ccccc1-c1ccc(S(=O)(=O)N(CC(=O)NCc2ccc(CN)cc2)CC2(c3ccc(Cl)cc3)CC2)cc1`: 16900 nM; `C[C@@H](CN(CC(=O)NCc1ccc(CN)cc1)S(=O)(=O)c1ccc(-c2ccc(OC(F)(F)F)cc2)cc1)c1ccccc1`: 520 nM. The same measure, in the same setting: next, `COc1ccccc1CCN(CC(=O)NCc1ccc(CN)cc1)S(=O)(=O)c1ccccc1`: 4530 nM. On the same count and under the same terms, next, `COc1ccccc1CCN(CC(=O)NCc1ccc(CN)cc1)S(=O)(=O)c1ccccc1-c1cccc(N)c1`: 5500 nM; `COc1ccc(S(=O)(=O)N(CCc2ccccc2OC)CC(=O)NCc2ccc(CN)cc2)c([N+](=O)[O-])c1`: 5760 nM. For the compound `NCc1ccc(CNC(=O)CN(CC2(c3ccc(Cl)cc3)CC2)S(=O)(=O)c2ccc(-c3ccccc3Cl)cc2)cc1`, the concentration for a half-maximal effect (EC50) on human FSH receptor is 17000 nM. Same read-out and setting: next, `C[C@@H](CN(CC(=O)NCc1ccc(CN)cc1)S(=O)(=O)c1ccc(-c2ccc(C(F)(F)F)cc2)cc1)c1ccccc1`: 440 nM; `C[C@@H](CN(CC(=O)NCc1ccc(CN)cc1)S(=O)(=O)c1ccc(-c2cccc(C#N)c2)cc1)c1ccccc1`: 210 nM. On the same count and under the same terms, next, `C[C@H](CN(CC(=O)NCc1cccc(CN)c1)S(=O)(=O)c1ccc(-c2cccc(F)c2)cc1)c1ccccc1`: 2640 nM; `C[C@H](CN(CC(=O)NCC1CCC(CN)CC1)S(=O)(=O)c1ccc(-c2ccccc2Cl)cc1)c1ccccc1` (stereo partly drawn): 170 nM.

Take `CCOc1ccccc1CCN(CC(=O)NCCCCCCN)S(=O)(=O)c1ccc(-c2ccccc2Cl)cc1`: the EC50 on human FSH receptor turned out to be 290 nM. For the compound `C[C@@H](CN(CC(=O)NCc1ccc(CN)cc1)S(=O)(=O)c1ccc(C(F)(F)F)cc1)c1ccccc1`, the 50% effective concentration (EC50) on human FSH receptor stood at 4200 nM. On the same count and under the same terms, next, `COc1ccccc1CCN(CC(=O)NCc1ccc(CN)cc1)S(=O)(=O)c1ccccc1-c1ccncc1`: 8660 nM. Still for that read-out and setting: next, `COc1ccccc1CCN(CC(=O)NCc1ccc(CN)cc1)S(=O)(=O)c1ccccc1-c1ccc2c(c1)OCO2`: 31100 nM; `COc1ccccc1CN(CC(=O)N1CCNCC1)S(=O)(=O)c1ccc(-c2cccs2)cc1`: no less than 50000 nM; `C[C@@H](CN(CC(=O)NCc1ccc(CN)cc1)S(=O)(=O)c1ccccc1)c1ccccc1`: 1540 nM. With `C[C@@H](CN(CC(=O)NC1CCC(CC2CCC(N)CC2)CC1)S(=O)(=O)c1ccc(-c2cccc(F)c2)cc1)c1ccccc1` (stereo partly drawn), on human FSH receptor, the EC50 turned out to be 3460 nM. For the compound `COc1cccc(S(=O)(=O)N(CC(=O)NCc2ccc(CN)cc2)C[C@H](C)c2ccccc2)c1`, the EC50 on human FSH receptor was 420 nM. Same read-out and setting: next, `COc1ccccc1CCN(CC(=O)NCc1ccc(CN)cc1)S(=O)(=O)c1cccc(-c2ccccc2)c1`: 3930 nM; `COc1ccccc1CCN(CC(=O)NCc1ccc(CN)cc1)S(=O)(=O)c1ccccc1-c1ccc(OC)c(OC)c1OC`: 3130 nM; `Cc1ccc(Cl)c(-c2ccc(S(=O)(=O)N(CC(=O)NCc3ccc(CN)cc3)C[C@H](C)c3ccccc3)cc2)c1`: 410 nM. On the same count and under the same terms, next, `COc1ccccc1CCN(CC(=O)NCc1ccc(CN)cc1)S(=O)(=O)c1ccc(-c2ccsc2)s1`: 1160 nM.
